The values that follow are results of earlier work, collected in publication PMC4605401 (2009).

Chains of the proteins cited; added tags and fusions are not shown. Lines headed by an entry give the natural chain unless they say otherwise; changes in a name come on top.
UniProt P47900: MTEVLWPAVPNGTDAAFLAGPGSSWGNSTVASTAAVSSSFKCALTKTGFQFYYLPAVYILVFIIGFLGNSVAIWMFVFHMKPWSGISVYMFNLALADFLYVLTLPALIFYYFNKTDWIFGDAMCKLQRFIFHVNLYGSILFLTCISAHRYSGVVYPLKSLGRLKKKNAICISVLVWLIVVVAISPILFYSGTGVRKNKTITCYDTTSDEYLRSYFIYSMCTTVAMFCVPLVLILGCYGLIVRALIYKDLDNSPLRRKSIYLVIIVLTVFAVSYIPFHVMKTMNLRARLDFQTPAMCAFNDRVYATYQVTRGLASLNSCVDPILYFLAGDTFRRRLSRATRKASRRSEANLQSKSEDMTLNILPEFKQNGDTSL

Molecules are shown by their SMILES.

Series [1] has as its target P2Y1 receptor. To be noted: read-out: previously reported Kd, standard membrane binding, ref [11]; cited from earlier work.
Series [2] concerns the target P2Y1 receptor (Homo sapiens, UniProt P47900). To be noted: read-out: previously reported Kd, CMAC approach, earlier CMAC(1321N1P2Y1) column, ref [6]; cited from earlier work.

As for `CSc1nc(N)c2ncn([C@@H]3O[C@H](COP(=O)(O)OP(=O)(O)O)[C@@H](O)[C@H]3O)c2n1` [2-MeSADP], the values for the Kd on P2Y1 receptor [1] and at P2Y1 receptor [2] were 50 nM and 186 nM, respectively.
